Data on 11 compounds can be found in article PMC3947174 (Structure (London, England : 1993), 2013).

Experiment [1] addresses CALP E317A (Homo sapiens, UniProt Q9HD26, E317A). Kind of experiment: FP competition binding to CALP E317A mutant.
The target in experiment [2] is CALP (CAL PDZ domain) (Homo sapiens, UniProt Q9HD26). Kind of experiment: FP competition. In kind it is binding. To be noted: reporter F*-iCAL36, PDZ ~[…] Kd, triplicate experiments.
The target of experiment [3] is N2P2 (NHERF2 PDZ2) (Homo sapiens, UniProt Q15599). Kind of experiment: FP displacement binding to NHERF2 PDZ2.
Experiment [4] has as its target iCAL36VQDTRL. Kind of experiment: fluorescence polarization competition. On the technique in general: Polarisation of emitted light reports the rotation of a fluorescent probe.
The target of experiment [5] is iCAL36TRL. Kind of experiment: fluorescence polarization competition.
The target in experiment [6] is proteasome subunit beta type-9 (Homo sapiens). Put plainly: fluorescence polarization competition.
The target of experiment [7] is semaphorin 4G isoform 3 (Homo sapiens). Put plainly: fluorescence polarization competition.
The target in experiment [8] is HPV16 E6 (Human papillomavirus type 16). Put plainly: fluorescence polarization competition.
In experiment [9] the target is histone H4 transcription factor (Homo sapiens). Put plainly: fluorescence polarization competition.
In experiment [10] the target is L-iCAL36. Put plainly: fluorescence polarization competition.
Experiment [11] addresses iCAL36VQD-3. Put plainly: fluorescence polarization competition.
Experiment [12] deals with iCAL36QDTRL. Put plainly: fluorescence polarization competition.
The target of experiment [13] is iCAL36Q-4. Kind of experiment: fluorescence polarization competition.
The target of experiment [14] is V-iCAL36. Put plainly: fluorescence polarization competition.
Experiment [15] has as its target H-iCAL36. Kind of experiment: fluorescence polarization competition.
In experiment [16] the target is insulin-like growth factor-binding protein 3 receptor (Homo sapiens). Kind of experiment: fluorescence polarization competition.
Experiment [17] addresses iCAL36. Kind of experiment: fluorescence polarization competition. As to conditions: cited from earlier work.

As for `CC(C)C[C@H](NC(=O)[C@H](CCCNC(=N)N)NC(=O)[C@@H](NC(=O)[C@@H](NC(=O)[C@H](CCC(N)=O)NC(=O)[C@@H](NC(=O)[C@H](CCC(=O)O)NC(=O)[C@H](CCC(=O)O)NC(=O)[C@H](CCC(=O)O)NC(=O)[C@@H](N)[C@@H](C)O)C(C)C)[C@@H](C)O)[C@@H](C)O)C(=O)O` [CFTRT^-3], the Ki in experiment [1] is 15.1 ± 2 µM.
Take `CC(C)[C@H](NC(=O)[C@H](CCCNC(=N)N)NC(=O)[C@@H](NC(=O)[C@H](C)NC(=O)[C@H](Cc1ccccc1)NC(=O)[C@H](Cc1c[nH]c2ccccc12)NC(=O)[C@H](CO)NC(=O)[C@H](CS)NC(=O)CNC(=O)[C@@H](N)CS)[C@@H](C)O)C(=O)O` [HINFP_HUMAN]: the Ki in experiment [2] stood at 46 ± 24 µM.
In experiment [2], `CC(C)C[C@H](NC(=O)[C@H](CCCNC(=N)N)NC(=O)[C@H](CO)NC(=O)CNC(=O)[C@H](CCC(=O)O)NC(=O)[C@H](Cc1c[nH]c2ccccc12)NC(=O)[C@@H](NC(=O)[C@H](CCC(=O)O)NC(=O)[C@H](Cc1ccccc1)NC(=O)CN)[C@@H](C)O)C(=O)O` [Peptide B4DZW2_HUMAN] had a Ki of 120 ± 60 µM.
In experiment [2], `CC(C)[C@H](NC(=O)[C@H](CCCNC(=N)N)NC(=O)[C@H](CO)NC(=O)[C@H](Cc1ccccc1)NC(=O)[C@H](CO)NC(=O)[C@H](Cc1c[nH]c2ccccc12)NC(=O)[C@@H]1CCCN1C(=O)[C@H](CO)NC(=O)[C@H](Cc1c[nH]cn1)NC(=O)[C@@H]1CCCN1)C(=O)O` [SEM4G_HUMAN] displayed a Ki of 46 ± 14 µM.
As for `CC(C)C[C@H](NC(=O)[C@H](CCCNC(=N)N)NC(=O)[C@@H](NC(=O)[C@H](CCCNC(=N)N)NC(=O)[C@H](CO)NC(=O)[C@H](Cc1c[nH]c2ccccc12)NC(=O)[C@H](Cc1c[nH]cn1)NC(=O)[C@H](CO)NC(=O)[C@H](CCC(=O)O)NC(=O)[C@@H](N)CCCNC(=N)N)[C@@H](C)O)C(=O)O` [TM219_HUMAN], affinity in experiment [2] was put at a Ki of 29 ± 8 µM.
As for `CC[C@H](C)[C@H](NC(=O)[C@@H](NC(=O)[C@H](CO)NC(=O)[C@@H](NC(=O)[C@H](CCC(N)=O)NC(=O)[C@H](Cc1c[nH]c2ccccc12)NC(=O)[C@H](CCCNC(=N)N)NC(=O)[C@H](CO)NC(=O)[C@H](CC(N)=O)NC(=O)[C@H](C)N)[C@@H](C)O)[C@@H](C)CC)C(=O)O` [iCAL36Q^-4], the results for the Ki in [3] and in experiment [2] were 450 ± 150 µM and 14.8 ± 3.5 µM, respectively.
For `CC(C)C[C@H](NC(=O)[C@H](CCCNC(=N)N)NC(=O)[C@@H](NC(=O)[C@@H](NC(=O)[C@@H]1CCCN1C(=O)[C@H](Cc1c[nH]c2ccccc12)NC(=O)[C@H](CCCNC(=N)N)NC(=O)[C@H](CO)NC(=O)[C@H](CC(N)=O)NC(=O)[C@H](C)N)[C@@H](C)O)[C@@H](C)O)C(=O)O` [iCAL36TRL], the Ki in [1] was 2.2 ± 1.2 µM; in experiment [2], 4.5 ± 0.8 µM.
Taken in the same sequence, the figures for `CC(C)C[C@H](NC(=O)[C@H](CCCNC(=N)N)NC(=O)[C@@H](NC(=O)[C@H](CC(=O)O)NC(=O)[C@H](CCC(N)=O)NC(=O)[C@@H](NC(=O)[C@H](CCCNC(=N)N)NC(=O)[C@H](CO)NC(=O)[C@H](CC(N)=O)NC(=O)[C@H](C)N)C(C)C)[C@@H](C)O)C(=O)O` [iCAL36VQDTRL] were 140 ± 40 µM and 230 ± 30 µM.
Regarding `CC[C@H](C)[C@H](NC(=O)[C@@H](NC(=O)[C@H](CO)NC(=O)[C@H](CC(=O)O)NC(=O)[C@H](CCC(N)=O)NC(=O)[C@@H](NC(=O)[C@H](CCCNC(=N)N)NC(=O)[C@H](CO)NC(=O)[C@H](CC(N)=O)NC(=O)[C@H](C)N)C(C)C)[C@@H](C)CC)C(=O)O` [iCAL36VQD^-3], the Ki in experiment [1] came out at 770 ± 50 µM; in experiment [3], 420 ± 120 µM.
Take CALP E317A PDZ (from UniProt Q9HD26): the figures for the Ki in experiment [4] and in experiment [5] were 140 µM and 2.2 µM, respectively.
For CALP PDZ (from UniProt Q9HD26), the Ki in experiment [6] was found to be 120 µM; in [7] it was 46 µM; in experiment [4] it was 230 µM; in experiment [8], 340 µM; in [9] it was 46 µM; in [10], 68 µM. Further, the Ki in experiment [11] was over 1000 µM; in experiment [12], 56.2 µM; in [5], 4.5 µM; in experiment [13], 14.8 µM; in experiment [14] it was 190 µM; in experiment [15], 450 µM. Also, the Ki was 29 µM in experiment [16] and 22.6 µM in experiment [17].

What is called Ki is a measure of affinity in units of concentration, obtained from inhibition or displacement.
